Test system: Plasmodium berghei
Assay: Antimalarial activity against Plasmodium berghei ANKA infected in perorally dosed NMRI mice (Mus musculus) assessed as reduction in parasitemia administered as single dose measured on day 3 postinfection
Assay type: functional

## COc1ccc(OC)c(CNc2ccc3nc(N)nc(N)c3c2Cl)c1
  inhibition: Dose dependent effect

## C[C@H]1[C@H](OC(=O)CCC(=O)O)O[C@@H]2O[C@@]3(C)CC[C@H]4[C@H](C)CC[C@@H]1[C@@]24OO3 [ARTESUNATE]
  inhibition: Dose dependent effect

Source: ChEMBL document CHEMBL1255487, “Preclinical evaluation of the antifolate QN254, 5-chloro- N'6'-(2,5-dimethoxy-benzyl)-quinazoline-2,4,6-triamine, as an antimalarial drug candidate” (Antimicrob Agents Chemother, 2010)
